Data from patent publication US20220168440A1, “ANTIBODY-PYRROLOBENZODIAZEPINE DEPRIVATIVE CONJUGATE” (DAIICHI SANKYO COMPANY, LIMITED, priority 2019, published 2022).

What was measured:
Type in all cases: in vivo, human
[1] = test system: subcutaneously transplanted KPL-4 cells; test: Antitumor test (3), xenograft in female BALB/c nude mice; settings: KPL-4 xenograft
Description: (§1) Mouse: Four- to five-week-old female BALB/c nude mice (Charles River Laboratories Japan, Inc.) were habituated under SPF conditions for 4 to 7 days before being used for experiment. To the mice, sterilized pellets (FR-2, Funabashi Farms Co., Ltd.) were fed and sterilized tap water (prepared by adding 5 to 15 ppm sodium hypochlorite solution) was provided.
(§2) Assay and calculation formula: In all of the studies, the major axis and minor axis of a tumor were measured twice or three times a week by using an electronic digital caliper (CD-15CX, Mitutoyo Corp.), and the tumor volume (mm^3) was calculated. The calculation formula is as shown below.
(§3) Tumor volume (mm^3)=Major axis (mm)×[Minor axis (mm)]^2×½
(§4) Each of the antibody-drug conjugates and antibodies was diluted with 10 mM acetate buffer, 5% sorbitol, pH 5.5 (NACALAI TESQUE, INC.; ABS buffer), and a liquid volume of 10 mL/kg was intravenously administered into the tail vein. As a control group (Vehicle group), ABS buffer was administered in the same manner.
KPL-4 cells (Dr. Junichi Kurebayashi, Kawasaki Medical School, British Journal of Cancer, (1999) 79(5/6). 707-717) were suspended in Dulbecco's phosphate buffered saline (Sigma-Aldrich Co. LLC), and 1.5×10^7 cells were subcutaneously transplanted to the right flank of each female nude mouse (Day 0), and the mice were randomly grouped on Day 14. […]

[2] = test system: subcutaneously transplanted JIMT-1 cells; test: Antitumor test (4), xenograft in female BALB/c nude mice; settings: JIMT-1 xenograft
Description: as §1, §2, §3, §4
JIMT-1 cells (DSMZ ACC 589) were suspended in physiological saline (Otsuka Pharmaceutical Factory, Inc.), and 5×10^6 cells were subcutaneously transplanted to the right flank of each female nude mouse (Day 0), and the mice were randomly grouped on Day 10. […]

[3] = test system: subcutaneously transplanted NCI-N87 cells; test: Antitumor test (2), xenograft in female BALB/c nude mice; settings: 0.33 mg/kg i.v. tail vein on Day 4
Description: as §1, §2, §3, §4
NCI-N87 cells (ATCC CRL-5822) were suspended in Dulbecco's phosphate buffered saline (Sigma-Aldrich Co. LLC), and 1×10^7 cells were subcutaneously transplanted to the right flank of each female nude mouse (Day 0), and the mice were randomly grouped on Day 4. […]

Substance	weight loss of mice ([1]; 0.4 mg/kg i.v. on Day 14)	antitumor effect (tumor volume) ([1]; 0.4 mg/kg i.v. tail vein on Day 14)	weight loss of mice ([2]; 0.4 mg/kg i.v. on Day 10)	antitumor effect (tumor volume) ([2]; 0.4 mg/kg i.v. tail vein on Day 10)	antitumor effect (tumor volume) [3]
trastuzumab tesirine: trastuzumab conjugated with tesirine synthesized with reference to literature [reference compound]	No weight loss	regression of tumor was not found	No weight loss	antitumor effect was found but regression of tumor was not found	
trastuzumab: anti-HER2 antibody; light chain SEQ ID NO: 64, heavy chain SEQ ID NO: 65 [reference compound]					did not suppress tumor growth
